The values below come from patent US20050288347A1, “Certain triazole-based compounds, compositions, and uses thereof” (priority 2004, published 2005).

For the assay, the target named is protein kinase. As to the kind of experiment: HTS ATP-utilizing enzyme assay, off-chip mobility-shift format (Caliper HTS 250). In kind it is biochemical, human. The source says:
The following procedures describe the reagent and plate preparation for a HTS of an ATP-utilizing enzyme, such as a protein kinase, run in an off-chip mobility-shift assay format. The following provides an HTS protocol for running a protein kinase HTS screen on a Caliper HTS 250 microfluidics system. The following parameters are dependent on the protein kinase used and can be determined by one skilled in the art as part of a typical assay development process. For example, the peptide substrate used can be identified from the current literature, by screening a peptide library of potential protein kinase substrates, or by other applicable means accepted in the field.
The following table provides typical screen assay parameters appropriate for a Caliper HTS 250 microfluidics system. […]
Assays to determine the kinase inhibitory activity of chemical entities of the present disclosure were performed using a Caliper HTS 250 microfluidics device, Greiner U-bottom assay plates, a Multidrop for transfer of reagents, and Biomek FX (AMNCBM03) software. […] The inhibition of the ATP-utilizing enzyme, such as a particular protein kinase, was determined by measuring the ratio of the peptide substrate to phosphorylated product for each well of the assay plate using the Caliper HTS 250 system. […]

On to `CCn1c(CNc2ccc(OC)cc2)nnc1SCC(=O)N1CCCc2ccccc21`, for which the Kinase result was “PDGFRR-α and FYN”.
